Experimental data: PubChem BioAssay AID720709 (National Center for Advancing Translational Sciences (NCATS), 2013)
This is a selection; strong and weak results do not stand in their true shares. Some of these compounds have results that are not shown, active ones among them. Results filed as inconclusive are left out. Active and inactive are the calls of the source. Calls come from the whole dose curve; as a rule, active = well fitted inhibition curve with a large enough effect; inconclusive = small, poorly fitted or top-dose-only effect; inactive = no such curve, though single readings can be large or run the other way.

By UniProt entry, the sequences of proteins in these tests, tags left out.
UniProt O95398, whole entry: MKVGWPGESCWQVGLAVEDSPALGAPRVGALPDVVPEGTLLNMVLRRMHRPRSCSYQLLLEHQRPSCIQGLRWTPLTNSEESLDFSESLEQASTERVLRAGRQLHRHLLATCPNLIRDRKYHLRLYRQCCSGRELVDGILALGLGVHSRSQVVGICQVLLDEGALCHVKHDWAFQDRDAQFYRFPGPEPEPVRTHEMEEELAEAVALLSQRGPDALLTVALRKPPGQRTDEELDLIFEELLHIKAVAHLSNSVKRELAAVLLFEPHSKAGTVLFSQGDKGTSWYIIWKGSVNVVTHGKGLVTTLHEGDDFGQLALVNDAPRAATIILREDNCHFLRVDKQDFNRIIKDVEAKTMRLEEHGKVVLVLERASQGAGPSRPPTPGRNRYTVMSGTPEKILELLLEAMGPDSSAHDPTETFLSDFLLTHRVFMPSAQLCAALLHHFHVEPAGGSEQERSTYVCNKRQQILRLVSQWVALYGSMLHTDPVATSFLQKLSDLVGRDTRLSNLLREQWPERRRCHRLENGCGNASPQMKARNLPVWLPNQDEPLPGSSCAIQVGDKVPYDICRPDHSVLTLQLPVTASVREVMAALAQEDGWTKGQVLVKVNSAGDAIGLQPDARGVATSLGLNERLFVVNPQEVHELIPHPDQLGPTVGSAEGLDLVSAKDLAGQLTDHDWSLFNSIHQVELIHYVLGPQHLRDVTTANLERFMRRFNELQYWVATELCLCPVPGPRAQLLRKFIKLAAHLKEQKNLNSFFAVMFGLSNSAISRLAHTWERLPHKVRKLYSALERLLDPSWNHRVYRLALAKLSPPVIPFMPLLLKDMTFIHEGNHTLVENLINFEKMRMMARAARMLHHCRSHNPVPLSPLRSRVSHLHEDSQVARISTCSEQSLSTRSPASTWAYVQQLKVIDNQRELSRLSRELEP

biological target: Rap guanine nucleotide exchange factor 3 (Homo sapiens) (UniProt O95398); assay: qHTS for Antagonist of cAMP-regulated guanine nucleotide exchange factor 3 (EPAC1): primary screen; conditions: EPAC1 GEF assay, Rap1b-BODIPY-GDP exchange fluorescence; at 115 µM (top of the series); note: nearly all actives have a fitted effect of over 50% in size
Source text: In multi-cellular eukaryotic organisms, the effects of cAMP are transduced by two ubiquitously-expressed intracellular cAMP receptors, the classic protein kinase A/cAMP-dependent protein kinase (PKA/cAPK) and the more recently discovered exchange protein directly activated by cAMP/cAMP-regulated guanine nucleotide exchange factor (EPAC/cAMP-GEF). Both PKA and EPAC are ubiquitously expressed in all tissues, and an increase in intracellular cAMP levels will lead to the activation of both PKA and EPAC. Therefore, careful dissections of the individual role and relative contribution of EPAC and PKA within the overall cAMP signaling in various model systems are critical for further elucidating the mechanism of cAMP signaling. To date no EPAC-specific antagonists and agonist, as well as isoform-specific agonists have been reported, and developing EPAC-specific pharmacological probes to determine the physiological functions that EPAC play in the overall cAMP-mediated signaling remains a major challenge within the research field. Furthermore, identified regulators of EPAC may lead to new mechanism-based therapeutic strategies specifically targeting the EPAC / cAMP-signaling components as EPAC has been implicated to play important roles in major human pathological conditions such as diabetes, heart disease, and cancer. This qHTS will be used to screen the Molecular Libraries Small Molecule Repository (MLSMR) as a concentration-titration series using the NCGC unique quantitative screening (qHTS) platform to find inhibitors for EPAC1. In addition, this assay will also be used as a counterscreen for the EPAC2 qHTS. This fluorescent based assay is developed and validated for EPAC1 that measures exchange using EPAC effector Rap1 complex with BODIPY-GDP, a GDP analog with a tethered fluorophores. Inhibitors are identified by monitoring the change in fluorescence signal as the exchanged free BODIPY-GDP has a reduced fluorescence compared to Rap1-bound BODIPY-GDP. Decrease in signal (inhibition) is the desired outcome for the EPAC1 antagonist while no activity in this assay is desired for the EPAC2 antagonist counterscreen. de Rooij, J., Zwartkruis, F. J., Verheijen, M. H., Cool, R. H., Nijman, S. M., Wittinghofer, A., and Bos, J.L. (1998) Nature 396, 474-477 [2] Kawasaki, H., Springett, G. M., Mochizuki, N., Toki, S., Nakaya, M., Matsuda, M., Housman, D. E., and Graybiel, A. M. (1998) Science 282, 2275-2279 NIH Chemical Genomics Center [NCGC] NIH Molecular Libraries Probe Centers Network [MLPCN] MLPCN Grant: NS066510 Assay Submitter (PI): Xiaodong Cheng, The University of Texas, Medical Branch
Briefly, three uL of reagents (100 nM EPAC1, 250 nM RAP1B-BODIPY-GDP, 50 uM GDP) were dispensed into a 1536-well Greiner black solid-bottom medium binding assay plate. Controls and test compounds (23 nL) were transferred to the plate via a Kalypsys pin tool equipped with a 1536-pin array. The plates were centrifuged at 1,000 rpm for 15 seconds followed by 5 minute incubation at room temperature. The assay plates were read at 5 minute intervals for 30 minutes in the ViewLux plate reader using 480nm excitation and 540nm emission filters. The results were normalized to the […] positive control ATA and DMSO.

Row | SMILES | activity change, negative = inhibition
1 | O=C(OC1CN2CCC1CC2)C(CO)(c1ccccc1)c1ccccc1 (stereo not given) | inactive: -13.1%
2 | C=C(C)C#CC(O)(C(=O)OC1CCN(C)CC1)c1ccccc1 (stereo not given) | inactive: 16.2%
3 | COc1ccc(Br)c(C(=O)NCC2(N3CCCCC3)CCCCC2)c1 | inactive: 0.605%
4 | CC(C)Oc1ccc(C(=O)NCC2(N(C)C)CCCCC2)cc1 | inactive: -14.6%
5 | O=C(OCCN1CCCC1)C(O)(c1ccccc1)c1ccccc1 | inactive: -11.1%
6 | CN(C)c1cccc(C(=O)NCC2(N(C)C)CCCCC2)c1 | inactive: 2.37%
7 | CN(C)C1(CNC(=O)c2ccc(Br)cc2)CCCCC1 | inactive: -2.87%
8 | COc1cc(C(=O)NCC2(N(C)C)CCCCC2)c([N+](=O)[O-])cc1OC | inactive: 3.25%
9 | COc1cccc(C(=O)NCC2(N3CCCCC3)CCCCC2)c1 | inactive: -17.4%
10 | COc1ccc(Cl)cc1C(=O)NCC1(N(C)C)CCCCC1 | inactive: -0.364%
11 | O=C(NCC1(N2CCCCC2)CCCCC1)c1cccc(Cl)c1 | inactive: -7.66%
12 | Cc1ccccc1C(=O)NCC1(N2CCCCC2)CCCCC1 | inactive: -7.91%
13 | CN(C)C1CCCC1OC(=O)C(O)(c1ccccc1)c1ccccc1 (stereo not given) | inactive: 8.85%
14 | CN(C)c1ccc(C(=O)NCC2(N(C)C)CCCCC2)cc1 | inactive: -6.69%
15 | C=CCN1CCN(CCOC(=O)C(O)(c2ccccc2)c2ccccc2)CC1 | inactive: -17.3%
16 | O=C(NCC1(N2CCCCC2)CCCCC1)c1cc(F)c(F)cc1Cl | inactive: 18.9%
17 | COc1ccc(C(=O)NCC2(N(C)C)CCCCC2)cc1 | inactive: 1.8%
18 | Cc1cc(C(=O)NCC2(N3CCCCC3)CCCCC2)ccc1[N+](=O)[O-] | inactive: 13.1%
19 | CCN1CCCC(OC(=O)C2(O)c3ccccc3C=Cc3ccccc32)C1 (stereo not given) | inactive: 1.85%
20 | O=C(NCC1(N2CCCCC2)CCCCC1)c1cccc(Br)c1 | inactive: 25.4%
21 | O=C(NCC1(N2CCCCC2)CCCCC1)c1cc([N+](=O)[O-])ccc1Cl | inactive: 6.64%
22 | CN1[C@@H]2CC[C@H]1CC(OC(=O)C(O)(c1ccccc1)c1ccccc1)C2 (stereo not given in full) | inactive: -1.4%
23 | CCN(CC)CC(C)C(C)OC(=O)C(O)(c1ccccc1)c1ccccc1 (stereo not given) | inactive: -7.73%
24 | COc1cc(SC)ccc1C(=O)NCC1(N(C)C)CCCCC1 | inactive: -8.14%
25 | CC(C)N1C(=O)CC2(CCN(CCOC(=O)C(O)(c3ccccc3)c3ccccc3)CC2)C1=O | inactive: -1.5%
